In this experiment the target is epidermal growth factor receptor (EGFR) (human (endogenous on human cancer cell lines)) (UniProt P00533). Description: cell-based or functional assay.

CXCL12-Cetuximab (bispecific antibody) gave a Dmax (%), EGFR, A431 of 54%; a Dmax (%), EGFR, A549 of 72%; a Dmax (%), EGFR, HeLa of 84%; a Dmax (%), EGFR, MDA-MB-231 of 66%. The same substance registered a Dmax (%), EGFR, NCI-H292 of 74%; a Dmax (%), EGFR, NCI-H358 of 79%; a Dmax of EGFR degradation, western blot, HeLa cells, 24 hr of 86%.

The values are drawn from US20240189423A1.
